Assays:
[1] = Cytotoxicity assay (CCK-8 cell viability); type: cell-based; conditions: human, THP-1-derived M2 macrophages
Method: THP-1 cells were differentiated into macrophages by 24 h incubation with 100 nM PMA and polarized in M2 macrophages by incubation with 20 ng/ml of IL-4 and 20 ng/ml of IL-13 for 72 h. Polarized cells were treated with increasing concentrations of TAMpep and fragments of TAMpep (0.05-20 μM) for 24 h. Cell viability was analyzed using the CCK-8 assay: CCK-8 reagent (Enzo Life Sciences) was added to each well; incubation was continued for 2 hours, and absorbance was measured at 450 nm with a microplate reader (Molecular Devices).

mouse RBC = assay: Hemolytic activity assay; type: cell-based; conditions: 0.1-50 μM, 37° C., 1 h, read-out: hemolysis IC50
Method: Mouse blood samples were collected in tubes containing heparin as an anticoagulant and stored at 4 ° C. before use. Whole blood sample were centrifuged at 1,500×g for 5 min and the resulting plasma fraction was removed from the samples. The pellets were washed with an equal volume of saline, mixing by inversion. The centrifuging and washing steps were repeated 5 times. Red blood cells were counted by a hemocytometer and adjusted to […]. Red blood cells were then incubated at 37° C. for 1 h in 1% Triton X-100 (positive control), in PBS (blank), or with increasing concentrations of TAMpep and Mpep (0.1-50 μM) were evaluated. The samples were then centrifuged at 10,000 g for 5 min, the supernatant was separated from the pellet, and its absorbance measured at 570 nm. The relative optical density compared to that of the suspension treated with 1% Triton X-100 was defined as the percentage of hemolysis.

[2] = system: THP-1-derived M2 macrophages; assay: Affinity test of FITC-conjugated peptides by flow cytometry; type: cell-based, human; conditions: FITC-conjugated peptide, 50 nM, 1 h, FACS
Method: THP-1 monocytes were differentiated into macrophages by 24 h incubation with 100 nM phorbol 12-myristate 13-acetate (PMA, Sigma) followed by 24 h incubation in RPMI medium (Invitrogen). Macrophages were polarized in M1 macrophages (M1) by incubation with 20 ng/ml of IFN-γ (Prospec) and 100 ng/ml of LPS (Sigma). Macrophage M2 polarization(M2) was obtained by incubation with 20 ng/ml of interleukin (IL) 4 (Prospec) and 20 ng/ml of interleukin 13 (Prospec). M2-like tumor-associated macrophages were polarized by incubation with 20% conditioned medium of PC3 cells.
THP-1 cells were differentiated into macrophages by a 24 h incubation with 100 nM PMA and polarized in M2 macrophages by incubation with 20 ng/ml of IL-4 and 20 ng/ml of IL-13 for 72 h. Polarized cells were treated with 50 nM TAMpep and fragments of TAMpep or Mpep and alanine library of Mpep conjugated with FITC for 1 h. To test change of macrophage population in melanoma tissue, the single cells were isolated from tumor tissue through a 40 μm nylon mesh strainer after dissociation by DNase I (1 U/mL) and collagenase D (1 mg/ml). Cells were detected on BD FACSCalibur and BD FACSCantoII instruments and analyzed by FlowJo software.

CC[C@H](C)[C@H](NC(=O)CN)C(=O)NCC(=O)N[C@@H](C)C(=O)N[C@H](C(=O)N[C@@H](CC(C)C)C(=O)N[C@@H](CCCCN)C(=O)N[C@H](C(=O)N[C@@H](CC(C)C)C(=O)N[C@H](C(=O)N[C@H](C(=O)NCC(=O)N[C@@H](CC(C)C)C(=O)N1CCC[C@H]1C(=O)N[C@@H](C)C(=O)N[C@@H](CC(C)C)C(=O)N[C@H](C(=O)N[C@@H](CO)C(=O)N[C@@H](Cc1c[nH]c2ccccc12)C(=O)N[C@H](C(=O)N[C@@H](CCCCN)C(=O)N[C@@H](CCCNC(=N)N)C(=O)N[C@@H](CCCCN)C(=O)N[C@@H](CCCNC(=N)N)C(=O)N[C@@H](CCC(N)=O)C(=O)N[C@@H](CCC(N)=O)C(N)=O)[C@@H](C)CC)[C@@H](C)CC)[C@@H](C)O)[C@@H](C)O)C(C)C)C(C)C [TAMpep, reference compound]
IC50 at 24 h [1]: 0.815 µM
IC50 (mouse RBC): 6.67 µM
affinity in M2 macrophages [2]: over 90%
